## Experimental properties from OPERA 2.9

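The numbers are reported measurements, compiled and curated for the OPERA QSAR suite. A listed value is a point estimate from one report or more. Method, purity and exact conditions of the single measurements are not given. A value may pool stereoisomers or salt forms, and the file does not say which form was measured. Some upstream entries may be estimates or bounds without being marked so.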

The melting point is given in degrees Celsius. Boiling points are in °C, nominally at 760 mmHg. logP is the log10 of the octanol-water partition coefficient; higher is more lipophilic. Solubility in water is on a log10 molar scale (set defined at 25 °C). Vapor pressure is log10 of mmHg; the set covers 15 to 30 °C, mostly 20 to 25 °C. The unbound fraction in human plasma runs from 0 (all bound) to 1 (all free). Intrinsic clearance (human, µL/min per 10^6 hepatocytes): higher is faster turnover, and 0 stands for none detected.

For O=C=Nc1ccccc1Cc1ccccc1N=C=O [2,2'-Methylenedi(phenyl isocyanate)] the data give mp 42.24 °C and vapor pressure -4.131 (log10 mmHg). CC1=C(C=O)C(C)(C)CC=C1 [Safranal] has mp 2.5 °C and log S -2.465 (log10 mol/L) and vapor pressure -1.112 (log10 mmHg). For CC(C)c1cc(C(C)C)c(N=C=Nc2c(C(C)C)cc(C(C)C)cc2C(C)C)c(C(C)C)c1 [N,N'-bis(2,4,6-Triisopropylphenyl)methanediimine] the data give mp -40.4 °C and log S -8.354 (log10 mol/L). The entry for C=C[C@@H](COC(C)=O)OC(C)=O [But-1-ene-3,4-diyl diacetate] lists log Kow 1.53 and vapor pressure -0.782 (log10 mmHg). C=CC(C)CCCC(C)(C)OC=O (stereo not given) [7-Octen-2-ol, 2,6-dimethyl-, 2-formate] is reported with log Kow 3.55 and log S -3.712 (log10 mol/L) and vapor pressure -0.436 (log10 mmHg).

OCc1ccc(-c2ccccc2)cc1 [4-Biphenylmethanol] is reported with log Kow 3.2 and log S -2.45 (log10 mol/L). Listed for C=CC(C)(CCC=C(C)CC)OC(C)=O (stereo not given) [1,6-Nonadien-3-ol, 3,7-dimethyl-, 3-acetate]: log Kow 4.4 and vapor pressure -1.264 (log10 mmHg). CC1(C)NC(=O)NC1=O [5,5-Dimethylhydantoin] has boiling point 312.9 °C and vapor pressure -5.545 (log10 mmHg). For CCCCc1ccc(-c2ccc(OCC)c(F)c2F)cc1 the data give mp 36 °C and boiling point 362.3 °C and log Kow 6.9 and log S -7.422 (log10 mol/L) and vapor pressure -6.198 (log10 mmHg). CCOc1ccc(C[C@@H](CNCCN)NC(=O)OCc2ccccc2)cc1.Cl.Cl has mp 220 °C and log Kow -0.06.

The entry for C=CCOC(=O)COc1ccccc1 [Allyl phenoxyacetate] lists mp 1.1 °C and log Kow 2.33 and log S -2.536 (log10 mol/L) and vapor pressure -1.202 (log10 mmHg). COc1cc(NC(=O)C(N=Nc2ccc(-c3ccc(N=NC(C(C)=O)C(=O)Nc4cc(OC)c(Cl)cc4OC)c(Cl)c3)cc2Cl)C(C)=O)c(OC)cc1Cl (stereo not given) [C.I. Pigment Yellow 83] has log Kow 0.51 and log S -8.005 (log10 mol/L). For C=C(Br)C(=O)Nc1ccc(/N=N/c2c(N)ccc3cc(S(=O)(=O)[O-])cc(O)c23)c(S(=O)(=O)[O-])c1.[Na+].[Na+] the data give log Kow -3.56 and vapor pressure -8.254 (log10 mmHg). N#Cc1ccc(Nc2nccc(=O)[nH]2)cc1 [4-[(6-Oxo-1,6-dihydropyrimidin-2-yl)amino]benzonitrile] is reported with mp 322.8 °C and log S -4.499 (log10 mol/L) and vapor pressure -9.907 (log10 mmHg). For Cc1cccc(C)c1OS(=O)(=O)c1ccc(O)cc1 [2,6-Dimethylphenyl 4-hydroxybenzenesulfonate] the data give mp 150.7 °C and log Kow 3 and log S -4.537 (log10 mol/L).

Listed for O=C(O)c1c(F)cc(Br)cc1F [4-Bromo-2,6-difluorobenzoic Acid]: log Kow 2.5 and log S -2.152 (log10 mol/L) and vapor pressure -5.782 (log10 mmHg). Cc1ccc(C2OC[C@@H]3OC(c4ccc(C)c(C)c4)O[C@H]([C@H](O)CO)[C@@H]3O2)cc1C (stereo partly drawn) [1,3:2,4-Bis(3,4-dimethylbenzylidene)-D-sorbitol] has boiling point 377.4 °C and log Kow 3.385 and log S -6.94 (log10 mol/L) and vapor pressure -8.08 (log10 mmHg). The entry for CC1=CC(=O)/C(=C(/C)[O-])C(=O)O1.[Na+] [Sodium dehydroacetate] lists fraction unbound 0.062 and hepatic Clint 0 µL/min/10^6 cells. O[C@@H](CN(Cc1ccccc1)C[C@H](O)[C@H]1CCc2cc(F)ccc2O1)[C@@H]1CCc2cc(F)ccc2O1 (relative stereo) has mp 121.3 °C and log S -6.259 (log10 mol/L) and vapor pressure -9.929 (log10 mmHg).

From the experimental data distributed with OPERA 2.9.